In PubChem BioAssay AID1645851 (National Center for Advancing Translational Sciences (NCATS), 2021) one finds activity change data, which are given here for 16 compounds.

Chains of the proteins cited; added tags and fusions are not shown.
UniProt Q92551, whole entry: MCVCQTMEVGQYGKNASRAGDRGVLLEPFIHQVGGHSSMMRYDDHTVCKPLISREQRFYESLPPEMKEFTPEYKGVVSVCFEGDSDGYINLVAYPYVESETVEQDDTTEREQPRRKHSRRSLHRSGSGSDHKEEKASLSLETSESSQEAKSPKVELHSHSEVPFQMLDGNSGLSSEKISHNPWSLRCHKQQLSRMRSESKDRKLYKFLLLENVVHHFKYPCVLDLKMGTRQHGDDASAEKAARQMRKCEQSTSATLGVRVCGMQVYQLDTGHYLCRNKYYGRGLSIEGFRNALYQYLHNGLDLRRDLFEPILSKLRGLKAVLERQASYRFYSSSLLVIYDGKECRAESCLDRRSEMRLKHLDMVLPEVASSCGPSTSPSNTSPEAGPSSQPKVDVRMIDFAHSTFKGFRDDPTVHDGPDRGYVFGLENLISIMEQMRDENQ

Molecules are shown by their SMILES. This is a selection; strong and weak results do not stand in their true shares. The source made the active and inactive calls. Cut-off read from the data, not from the text of the source: active = activity change below about -25%; inactive = the rest.
% is set by controls: 0 for no effect and ±100 for the full control effect.

For the test, the target named is Inositol hexakisphosphate kinase 1 (Homo sapiens) (UniProt Q92551). In words: Primary qHTS assay for small molecule inhibitors of Inositol hexaphosphate kinase 1 (IP6K1). Note: series mostly up to about 58 µM. The settings on record: ADP-Glo luminescence, 2 h, stronger effect = lower value. From the text:
Assay Provider: Huijun Wei, M.S., Ph.D. School of Medicine, Johns Hopkins University, Baltimore, MD Inositol hexakisphosphate kinases (IP6Ks) catalyze pyrophosphorylation of inositol hexakisphosphate (IP6) into inositol 5-diphospho-1,2,3,4,6-pentakisphosphate (IP7), which is involved in numerous areas of cell physiology including glucose homeostasis, blood coagulation and neurological development. Inhibition of IP6Ks may be effective for the treatment of Type II diabetes, thrombosis, and psychiatric disorders. We performed a quantitative high throughput screen (qHTS) of 158,410 compounds for IP6K1 inhibitors using ankinase activity ADP-Glo Max assay. […] Medicinal chemistry SAR efforts in three chemical series identified potent IP6K1 inhibitors, which were further validated in an orthogonal LC-MS IP7 analysis.
PROTOCOL TABLE SEQUENCE No. (e.g., 1, 2, 3, etc.); […] (e.g., Cells, Incubation, Reagent, etc.); VALUE and DESCRIPTION. 1. Reagent, 3 uL of 1.3 mM ATP and 130 uM IP6 mixture in assay buffer was dispensed to a white, 1536-well assay plate. 2. Compound, 23 nL of compounds of the top two doses (57.5 uM and 19.1 uM final concentration) of the libraries were dispensed into the mixture using the Kalypsis pintool. 3. Reagent, 1 uL of 2.4 uM IP6K1 was dispensed to the assay plates. 4. Incubation, 2 hr incubation at room temperature. 5. Reagent, 2 uL of ADP-Glo reagent was added to the wells. 6. Incubation, 1 hr incubation at room temperature. 7. Reagent, 4 uL or ADP-Glo substate was added to the wells. 8. Incubation, 45 min incubation at room temperature. 9. Detection, luminescence signal was detected using the ViewLux microplate imager (PerkinElmer).
In the case of `CCOC(=O)N1CCC(=O)CC1`, the activity change was inactive: 7.44%.

As for `COc1ccccc1C(=O)NCC1(N2CCOCC2)CCCCC1`, the activity change is inactive: 9.39%.

For the compound `O=C(NCC1(N2CCOCC2)CCCCC1)c1ccc(Cl)cc1`, the activity change is inactive: -10.2%. As to `CCCOc1cccc(C(=O)NCC2(N3CCOCC3)CCCCC2)c1`, the activity change was inactive: 16%. Consider `CCOc1ccc(C(=O)NCC2(N3CCOCC3)CCCCC2)cc1`, for which the activity change is inactive: -14.2%. Under `O=C(NCC1(N2CCOCC2)CCCCC1)c1ccccc1Br` stands inactive: -6.37%; under `CCCCOc1ccccc1C(=O)NCC1(N2CCOCC2)CCCCC1`, inactive: 13%; under `CCC(=O)N(c1ccccc1)C1CCNCC1`, inactive: 20.5%. To `O=C(NCC1(N2CCOCC2)CCCCC1)c1ccccc1` belongs inactive: 1.47%; to `O=C(NCC1(N2CCOCC2)CCCCC1)c1ccc([N+](=O)[O-])cc1`, inactive: -4%; to `O=C(NCC1(N2CCOCC2)CCCCC1)c1ccccc1[N+](=O)[O-]`, inactive: 17.3%. To `CC(C)(C)c1ccc(C(=O)NCC2(N3CCOCC3)CCCCC2)cc1` belongs inactive: -8.4%; to `Cc1ccccc1C(=O)NCC1(N(C)C)CCCCC1`, inactive: -3.07%. For the compound `CC(=O)N1CCc2ccc(N(C(=O)/C=C/c3cccc(C#N)c3)C3CCN(CCC4CCCC4)CC3)cc21`, the activity change was inactive: -5.68%. To `CN(C)C1(CNC(=O)c2ccc(C(C)(C)C)cc2)CCCCC1` belongs inactive: -6.19%.

Take `COc1cc(C(=O)NCC2(N3CCOCC3)CCCCC2)cc(OC)c1OC`: the activity change was inactive: -8.51%.
